Experimental findings from US20040115734A1 (VLAAMS INTERUNIVERSITAIR INSTITUUT VOOR BIOTECHNOLOGIE VZW, published 2004) are described below.

For this test, the target named is T1, GST alone (UniProt P08515 = GST).
T1 construct: Negative control, immobilized on glutathione beads; also called GST-beads
The test is described as follows: GST pull-down of [35S]-labeled C-terminal APP-stubs expressed in neurons; data not shown.

B1: APP-C83 (other, UniProt P05067 688-770, looked up)
chain: LVFFAEDVGSNKGAIIGLMVGGVVIATVIVITLVMLKKKQYTSIHHGVVEVDAAVTPEERHLSKMQQNGYENPTYKFFEQMQN
notes: domain: α-cleaved C-terminal fragment (APP-C83); The methods name the vector pSFV-APPC87; also called α-cleaved stub
On to B1, for which the binding result is “no binding”.
